Literature values in patent US20220242874A1, “CAMPTOTHECIN DERIVATIVES” (SUN PHARMA ADVANCED RESEARCH COMPANY LIMITED, priority 2019, published 2022).
Where a name gives a salt, the structure may show the parent alone.

Tested on: carboxylesterases present in liver and cancer cells
Conditions: by carboxylesterases present in liver and cancer cells; cited from earlier work

In the case of `CCc1c2c(nc3ccc(OC(=O)N4CCC(N5CCCCC5)CC4)cc13)-c1cc3c(c(=O)n1C2)COC(=O)[C@]3(O)CC` [Irinotecan, irinotecan hydrochloride], the “share of the pro-drug converted to SN-38” value is listed as 2-8%.
